From patent US7625554B2, “Treatment of alzheimer's disease” (priority 2002, dated 2009)

Key:
MxA mRNA = MxA mRNA signal by quantitative PCR in peripheral mononuclear cells of AD patients after ingesting IFN-α; assay type: in vivo, human
[1] = system: patients with Alzheimer's Disease; assay: Alzheimer's Disease Assessment Score, Cognitive Subscale (ADAS-Cog) in the 48 week double-blind trial; assay type: in vivo, human; conditions: for ADAS-Cog entry: baseline; for ADAS-Cog Δ (exit minus entry): 48 weeks vs baseline
IL-1, IL-6, and TGF-beta = assay: Pro-inflammatory cytokine secretion by peripheral blood mononuclear cells (ELISA); assay type: in vivo, human; conditions: oral administration of certain dosages; IL-1, IL-6, TGF-beta
Text: Peripheral blood mononuclear cells (PMNC) were isolated from heparinized venous blood by means of a Ficoll-Hypaque density gradient (Pharmacia Fine Chemicals, Piscataway, N.J.), washed twice with Hanks balanced salt solution (GIBCO, Grand Island, N.Y.), counted, and resuspended in standard media consisting of 10% fetal calf serum (FCS) (Whittaker Bioproducts, Walkersville, Md.) in RPMI (Whitaker Bioproducts, Walkersville, Md.), with 2% glutamine (GIBCO), and 1% penicillin/streptomycin (GIBCO).
Mononuclear cells (MNC) were unstimulated or stimulated with CD3, Con A, ionomycin/PMA. Supernatants were collected 2-7 days after activation and frozen at −70° C. after centrifugation. Interleukins were measured using solid phase ELISA commercial kit assays for IL-1, IL-6 (Biosource, Camarillo, Calif.) and TGF-β kits (Genzyme, Cambridge, Mass.). To determine the amount of sICAM-1 in serum samples diluted 1/10, commercial ELISA kits were used (Bender MedSystems, Vienna, Austria). To determine the amount of IL-1, IL-6, and a1ACT in serum samples, commercial ELISA kits (above) or routine laboratory tests were performed.

[2] = system: patients having mild to moderate cognitive decline; assay: Rate of cognitive decline in patients with mild to moderate cognitive decline; assay type: in vivo, human; conditions: oral administration of certain dosages
[3] = system: patients with Alzheimer's Disease; assay: Mini-Mental Status Examination (MMSE) in the 48 week double-blind trial; assay type: in vivo, human; conditions: for MMSE exit: 48 weeks; for MMSE Entry: baseline; for MMSE Δ (exit minus entry): 48 weeks vs baseline
[4] = system: pro-inflammatory cytokine production; conditions: ingested, humans with multiple sclerosis; cited from earlier work
[5] = AD patient 4, active arm (30K IU daily oral + donepezil 10 mg)
[6] = AD patient 6, active arm (3K IU daily oral + donepezil 10 mg)

## hrIFN-alpha: human recombinant alpha interferon (Roferon), 3,000 or 30,000 IU in 5 ml saline ingested daily, added to 10 mg donepezil
MxA mRNA; 3,000 IU active treatment AD patient, ingested for 48 weeks
  levels of Mx mRNA (in words): unsustained levels of Mx mRNA
MxA mRNA; active #2, 30K IU, Apr. 18, 2002
  Mx (MxA mRNA normalized to β-actin): 2.61 % β-actin molecules
MxA mRNA; active #2, 30K IU, Dec. 13, 2001
  Mx (MxA mRNA normalized to β-actin): 2.37 % β-actin molecules
MxA mRNA; active #2, 30K IU, Jan. 23, 2002
  Mx (MxA mRNA normalized to β-actin): 3.28 % β-actin molecules
MxA mRNA; active #2, 30K IU, Jul. 31, 2001
  Mx (MxA mRNA normalized to β-actin): 3.28 % β-actin molecules
MxA mRNA; active #2, 30K IU, Mar. 06, 2002
  Mx (MxA mRNA normalized to β-actin): 2.59 % β-actin molecules
MxA mRNA; active #2, 30K IU, May 31, 2001
  Mx (MxA mRNA normalized to β-actin): 0.78 % β-actin molecules
MxA mRNA; active #2, 30K IU, Oct. 30, 2001
  Mx (MxA mRNA normalized to β-actin): 6.82 % β-actin molecules
MxA mRNA; active #2, 30K IU, Sept. 19, 2001
  Mx (MxA mRNA normalized to β-actin): 3.88 % β-actin molecules
MxA mRNA; active #4, 30K IU, Apr. 06, 2000
  Mx (MxA mRNA normalized to β-actin): 0.08 % β-actin molecules
MxA mRNA; active #4, 30K IU, Aug. 08, 2000
  Mx (MxA mRNA normalized to β-actin): 0.50 % β-actin molecules
MxA mRNA; active #4, 30K IU, Jul. 19, 2002
  Mx (MxA mRNA normalized to β-actin): 1.09 % β-actin molecules
MxA mRNA; active #4, 30K IU, May 16, 2000
  Mx (MxA mRNA normalized to β-actin): 0.19 % β-actin molecules
MxA mRNA; active #4, 30K IU, May 30, 2002
  Mx (MxA mRNA normalized to β-actin): 0.76 % β-actin molecules
MxA mRNA; active #4, 30K IU, Nov. 14, 2000
  Mx (MxA mRNA normalized to β-actin): 0.28 % β-actin molecules
MxA mRNA; active #4, 30K IU, Sept. 19, 2000
  Mx (MxA mRNA normalized to β-actin): 0.63 % β-actin molecules
MxA mRNA; active #6, 3K IU, Aug. 02, 2002
  Mx (MxA mRNA normalized to β-actin): 0.37 % β-actin molecules
MxA mRNA; active #6, 3K IU, Jan. 04, 2003
  Mx (MxA mRNA normalized to β-actin): 0.39 % β-actin molecules
MxA mRNA; active #6, 3K IU, Jun. 21, 2002
  Mx (MxA mRNA normalized to β-actin): 0.52 % β-actin molecules
MxA mRNA; active #6, 3K IU, Mar. 01, 2003
  Mx (MxA mRNA normalized to β-actin): 0.42 % β-actin molecules
MxA mRNA; active #6, 3K IU, Mar. 29, 2002
  Mx (MxA mRNA normalized to β-actin): 0.41 % β-actin molecules
MxA mRNA; active #6, 3K IU, Nov. 28, 2002
  Mx (MxA mRNA normalized to β-actin): 0.28 % β-actin molecules
MxA mRNA; active #6, 3K IU, Oct. 15, 2002
  Mx (MxA mRNA normalized to β-actin): 0.25 % β-actin molecules
MxA mRNA; active #6, 3K IU, Sept. 05, 2002
  Mx (MxA mRNA normalized to β-actin): 0.19 % β-actin molecules
[1]; 3 active treatment group patients (2 with 30,000 IU, 1 with 3,000 IU) + donepezil, 48 weeks
  cognitive function as assessed by the ADAS-Cog test (in words): maintained or improved their cognitive function
[1]; AD patient 2, active arm (30K IU daily oral + donepezil 10 mg), 48 weeks
  ADAS-Cog exit: 43
[1]; AD patient 2, active arm (30K IU daily oral + donepezil 10 mg), max score 70, higher = worse
  ADAS-Cog entry: 42
[1]; AD patient 4, active arm (30K IU daily oral + donepezil 10 mg), 48 weeks
  ADAS-Cog exit: 38
[1]; [5]
  ADAS-Cog Δ (exit minus entry): −2
  ADAS-Cog entry: 40
[1]; AD patient 6, active arm (3K IU daily oral + donepezil 10 mg), 48 weeks
  ADAS-Cog exit: 12
[1]; [6]
  ADAS-Cog Δ (exit minus entry): −3
  ADAS-Cog entry: 15
IL-1, IL-6, and TGF-beta
  pro-inflammatory cytokine secretion by peripheral blood mononuclear cells (in words): decreases pro-inflammatory cytokine secretion
[2]
  rate of cognitive decline (in words): reduces the rate of cognitive decline
[3]; AD patient 2, active arm (30K IU daily oral + donepezil 10 mg)
  MMSE exit: 8
[3]; AD patient 2, active arm (30K IU daily oral + donepezil 10 mg), max score 30, higher = better
  MMSE Entry: 9
[3]; [5]
  MMSE exit: 10
  MMSE Δ (exit minus entry): −3
  MMSE Entry: 13
[3]; [6]
  MMSE exit: 19
  MMSE Δ (exit minus entry): −3
  MMSE Entry: 22
[4]
  pro-inflammatory cytokine production (in words): decreased pro-inflammatory cytokine production
